This passage reports inhibition results from ChEMBL document CHEMBL3232806 (J Med Chem, 2014).

The target in the assay is T1, NAD-dependent protein deacetylase sirtuin-2 (Homo sapiens) (UniProt Q8IXJ6).
T1 sequence (whole entry): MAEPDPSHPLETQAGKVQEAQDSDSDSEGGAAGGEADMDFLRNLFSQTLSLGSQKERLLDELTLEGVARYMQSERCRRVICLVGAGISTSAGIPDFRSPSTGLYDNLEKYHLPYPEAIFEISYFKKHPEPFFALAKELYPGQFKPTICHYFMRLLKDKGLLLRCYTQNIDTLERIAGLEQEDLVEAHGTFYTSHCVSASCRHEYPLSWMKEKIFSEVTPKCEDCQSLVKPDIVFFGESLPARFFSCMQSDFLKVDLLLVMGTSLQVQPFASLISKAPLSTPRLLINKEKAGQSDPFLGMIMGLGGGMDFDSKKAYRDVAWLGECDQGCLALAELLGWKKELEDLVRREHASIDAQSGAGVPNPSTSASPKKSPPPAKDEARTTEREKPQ
In words: Inhibition of SIRT2 (unknown origin) at 50 uM by luminescence assay relative to control. The method, boiled down:
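Single-point inhibition at 50 μM compound was measured by the luminescent SIRT-Glo assay. SIRT1 was human His6-tagged (C-terminal), expressed in E. coli BL21-DE3 with IPTG induction and purified on Ni-NTA. SIRT2 was obtained commercially.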

On to `O=c1[nH]c(=S)[nH]c(-c2ccccc2)c1Cc1c(O)ccc2ccccc12`, for which the inhibition stood at 46%.
